Test [1] concerns the target Alpha-2D Adrenergic Receptor (Rattus norvegicus, UniProt P22909). Put plainly: Alpha-2D adrenergic receptor binding assay (3H-para-aminoclonidine, rat cortex synaptic membranes). As to conditions: read-out: α2D Ki.
Test [2] deals with mouse acetylcholine bromide-induced abdominal constriction. The experiment in a line: Mouse acetylcholine bromide-induced abdominal constriction assay (MAIT). As to conditions: sc; % inhibition of abdominal constriction; dose not given.

Chains of the proteins cited; added tags and fusions are not shown.
UniProt P22909, whole entry: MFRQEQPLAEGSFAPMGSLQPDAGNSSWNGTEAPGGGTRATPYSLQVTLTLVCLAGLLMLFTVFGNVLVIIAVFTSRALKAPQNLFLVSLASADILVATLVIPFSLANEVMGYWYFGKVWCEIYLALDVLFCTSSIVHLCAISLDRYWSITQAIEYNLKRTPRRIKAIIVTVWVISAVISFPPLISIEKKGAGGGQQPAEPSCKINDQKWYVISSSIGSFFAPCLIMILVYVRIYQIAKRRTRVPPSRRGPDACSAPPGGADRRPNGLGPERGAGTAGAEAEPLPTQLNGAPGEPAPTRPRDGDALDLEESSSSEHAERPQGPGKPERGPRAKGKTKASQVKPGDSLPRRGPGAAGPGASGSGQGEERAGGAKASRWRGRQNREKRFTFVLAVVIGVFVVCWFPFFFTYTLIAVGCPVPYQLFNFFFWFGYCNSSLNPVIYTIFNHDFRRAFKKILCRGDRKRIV

The structures appear in SMILES notation.

As for `C(=Cc1c[nH]cn1)c1ccsc1`, the Ki in test [1] was found to be 9.4 nM. This compound also had an MAIT in test [2] of 13 sc.

As a reminder, the Ki is the dissociation constant of the complex between target and ligand, obtained from inhibition or displacement.

These data come from patent US6426356B1, “Imidazoethyl thiophenes” (Ortho-McNeil Pharmaceutical, Inc., priority 1998, dated 2002).
